Measured affinities in a library of Ab-14 heavy chain variants

The measurements come from Engelhart et al. 2022 (doi:10.1038/s41597-022-01779-4) through the FLAb antibody collection.

Target peptide (SARS-CoV-2 spike, HR2 region): PDVDLGDISGINAS

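The starting antibody came from a phage panning campaign against this peptide. Variants in AAYL49 differ from the parent at up to three CDR positions; double and triple changes were sampled at random. Affinity was read by AlphaSeq, a pooled yeast mating assay with surface-displayed partners. Binding brings cells together so that they mate, and sequencing counts the barcode pairs among the diploids. The ratio of observed to expected reads was calibrated, replicate by replicate, on BCL2-family standards whose Kd was known from biolayer interferometry. Mating was done three times.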

Parent scFv Ab-14: VH joined to VL by a 15-residue (Gly4Ser)3 linker. Changes lie in the heavy chain CDRs alone.
VH: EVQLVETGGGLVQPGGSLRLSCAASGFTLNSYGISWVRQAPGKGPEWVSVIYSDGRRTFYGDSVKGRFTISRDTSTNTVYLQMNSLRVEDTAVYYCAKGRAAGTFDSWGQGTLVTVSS
VL: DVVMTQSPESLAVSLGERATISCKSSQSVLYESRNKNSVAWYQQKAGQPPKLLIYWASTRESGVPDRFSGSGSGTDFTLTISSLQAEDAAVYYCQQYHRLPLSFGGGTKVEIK

Each variant's VH is given in full. Every variant below is changed at G33 of the VH (sequential numbering). Kd is apparent (estimated from mating counts) and averaged on the log scale over replicates with a signal. Smaller is tighter. Where no diploid with the target was found in any replicate, the entry reads "no signal": below detection, most likely a poor binder, though not proof of it. Entries are sorted by rising average, undetected variants last. As a blank, each scFv also met three strains without target: over library AAYL49, 15% of these pairings were detected, typically at 11 µM and seldom below 680 nM. For each scFv, signals with the empty controls are counted beside the result.

With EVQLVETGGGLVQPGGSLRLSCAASGFTLNSYDISWVRQAPGKGPEWVSVIYSDGRRTFYGPSVKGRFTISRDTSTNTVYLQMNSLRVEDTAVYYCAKGRYAGTFDSWGQGTLVTVSS the result was 260 nM (3 of 3 replicates; controls 2 of 9).
With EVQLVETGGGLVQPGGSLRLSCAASGFTDNSYWISWVRQAPGKGPEWVSVIYSDGRRTFYGDSAKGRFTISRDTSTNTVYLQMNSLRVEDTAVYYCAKGRAAGTFDSWGQGTLVTVSS the result was 1.6 µM (3 of 3 replicates; controls 6 of 9).
With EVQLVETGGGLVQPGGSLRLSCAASGFSLNSYLIWWVRQAPGKGPEWVSVIYSDGRRTFYGDSVKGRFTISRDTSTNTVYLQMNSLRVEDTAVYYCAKGRAAGTFDSWGQGTLVTVSS the result was 1.8 µM (1 of 3 replicates; controls 2 of 9).
With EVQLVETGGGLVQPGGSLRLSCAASGFTLNSYNISWVRQAPGKGPEWVSVIYSDGRRTFYGDSVKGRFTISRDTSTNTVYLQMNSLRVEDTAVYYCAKGRADGTFDWWGQGTLVTVSS the result was 2.3 µM (1 of 3 replicates; controls 1 of 9).
With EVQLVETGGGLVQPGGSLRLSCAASGFTLQSYDISWVRQAPGKGPEWVSVIYSDGRTTFYGDSVKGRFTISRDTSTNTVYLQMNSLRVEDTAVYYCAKGRAAGTFDSWGQGTLVTVSS the result was 3.0 µM (1 of 3 replicates; controls 3 of 9).
With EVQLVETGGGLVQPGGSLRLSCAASGFDLNSYWISWVRQAPGKGPEWVSVIYSDGRRTFYGDSVKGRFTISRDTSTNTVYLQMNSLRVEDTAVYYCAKGRAAGTFDSWGQGTLVTVSS the result was 540 µM (1 of 3 replicates; controls 4 of 9).
With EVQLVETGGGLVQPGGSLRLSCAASGFTLNSYRIIWVRQAPGKGPEWVSVIYSKGRRTFYGDSVKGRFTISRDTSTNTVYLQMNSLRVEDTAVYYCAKGRAAGTFDSWGQGTLVTVSS the result was no signal (0 of 3 replicates; controls 0 of 9).
With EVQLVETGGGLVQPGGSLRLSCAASGFTLNSYEISWVRQAPGKGPEWVSVIYSDHRRQFYGDSVKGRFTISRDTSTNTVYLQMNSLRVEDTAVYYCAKGRAAGTFDSWGQGTLVTVSS the result was no signal (0 of 3 replicates; controls 2 of 9).
With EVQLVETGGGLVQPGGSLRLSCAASGFTLNSYEISWVRQAPGKGPEWVSVIYSNGRRTFYGDSVKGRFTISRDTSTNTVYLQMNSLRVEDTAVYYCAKGRAAGTFQSWGQGTLVTVSS the result was no signal (0 of 3 replicates; controls 0 of 9).
With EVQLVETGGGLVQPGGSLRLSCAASGFTLNSYQISWVRQAPGKGPEWVSVIYSDGRRTFYGDSVKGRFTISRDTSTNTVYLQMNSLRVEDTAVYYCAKRRAAGTFDSWGQGTLVTVSS the result was no signal (0 of 3 replicates; controls 0 of 9).
With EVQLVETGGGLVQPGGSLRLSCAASGFTLNSYMISWVRQAPGKGPEWVSVIYSDGRRTFYGDSNAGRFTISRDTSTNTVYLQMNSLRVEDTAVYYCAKGRAAGTFDSWGQGTLVTVSS the result was no signal (0 of 3 replicates; controls 1 of 9).
With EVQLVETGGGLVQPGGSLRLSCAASGFTLNSYTVSWVRQAPGKGPEWVSVIYPDGRRTFYGDSVKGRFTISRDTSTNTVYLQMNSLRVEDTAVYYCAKGRAAGTFDSWGQGTLVTVSS the result was no signal (0 of 3 replicates; controls 0 of 9).
With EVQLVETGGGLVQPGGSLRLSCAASGFTLNSYKKSWVRQAPGKGPEWVSVIYSDGRRTFYGDSVKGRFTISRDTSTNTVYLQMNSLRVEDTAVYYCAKCRAAGTFDSWGQGTLVTVSS the result was no signal (0 of 3 replicates; controls 1 of 9).
With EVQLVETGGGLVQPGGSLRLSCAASGFTLNSYAISWVRQAPGKGPEWVSVIHSDGRRTFYGDVVKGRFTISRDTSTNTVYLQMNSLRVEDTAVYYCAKGRAAGTFDSWGQGTLVTVSS the result was no signal (0 of 3 replicates; controls 0 of 9).